# Legend:
# in vivo = details: mouse, ip
# [1] = tested on: guinea-pig isolated atria; details: isoprenaline agonist, product at 10^-4 M
smiles,measurement,setting,value
"CC(CCc1ccccc1)NCC(O)c1ccc(O)c(C(N)=O)c1 (centres unmarked) [Labetalol, reference compound]",LD50,in vivo,300 mg/kg
same,DR4 (dose ratio of agonist EC50 in the presence and in the absence of the product),[1],12590
